Calls of active or inactive are those of the source. No stated cut-off is given here; in the data, active = EC50 of 10 µM or less and inactive = more.
How the values were obtained:
[1] = target: Peroxisome proliferator-activated receptor gamma/Nuclear receptor coactivator 1 (Homo sapiens, UniProt P37231); assay: (§1) TR-FRET dose response biochemical High Throughput Screening assay for agonists of the steroid receptor coactivator 1 (SRC-1) recruitment by the peroxisome proliferator-activated receptor gamma (PPAR gamma): non-selective agonists. [Related pubchem assays (depositor defined):AID1300, AID1808, AID504735, AID631]; format: protein assay
[2] = target: Peroxisome proliferator-activated receptor gamma/Nuclear receptor coactivator 3 (Homo sapiens, UniProt P37231); assay: as §1, with “3 (SRC-3)” for “1 (SRC-1)”, “assays: 1301 (Confirmation screen.), 1048 (Primary screen.)]” for “assays (depositor defined):AID1300, AID1808, AID504735, AID631]”; format: functional
[3] = target: Peroxisome proliferator-activated receptor gamma/Nuclear receptor coactivator 2 (Homo sapiens, UniProt P37231); assay: TR-FRET dose response biochemical High Throughput Screening assay for agonists of the steroid receptor coactivator 2 (SRC-2) recruitment by the peroxisome proliferator-activated receptor gamma (PPAR gamma): non-selective agonists. [Related pubchem assays: 1297, 1032 ]; format: functional

Amino acid sequences for entries named in this document (tags omitted). A change or cut given only in a name is not applied to a line headed by its entry.
UniProt P37231: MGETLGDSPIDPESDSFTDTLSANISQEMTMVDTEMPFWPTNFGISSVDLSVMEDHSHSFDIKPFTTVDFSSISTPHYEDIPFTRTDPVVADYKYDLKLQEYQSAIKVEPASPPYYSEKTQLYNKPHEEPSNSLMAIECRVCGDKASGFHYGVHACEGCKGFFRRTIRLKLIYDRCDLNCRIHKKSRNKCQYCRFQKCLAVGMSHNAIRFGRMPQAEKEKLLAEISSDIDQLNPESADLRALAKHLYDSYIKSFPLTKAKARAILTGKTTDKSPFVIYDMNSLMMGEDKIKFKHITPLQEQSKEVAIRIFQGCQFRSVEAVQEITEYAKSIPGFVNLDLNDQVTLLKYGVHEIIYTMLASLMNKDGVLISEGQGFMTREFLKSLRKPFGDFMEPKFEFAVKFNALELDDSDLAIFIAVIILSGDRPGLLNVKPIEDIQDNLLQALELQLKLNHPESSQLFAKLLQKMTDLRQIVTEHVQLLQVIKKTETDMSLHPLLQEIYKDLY

Measured: EC50

CN(C)c1ccc2nc3ccc(=[N+](C)C)cc-3sc2c1 [METHYLENE BLUE ANHYDROUS]
active: [1] 0.958 µM | [2] 3.06 µM | [3] 0.742 µM

Reference: ChEMBL document CHEMBL1201862, “PubChem BioAssay data set” (2004)
